The text below walks through data of patent US8222270B2 (Medicis Pharmaceutical Corporation, priority 2008, dated 2012).

The nature of this data set: Genotoxicity tests (five in vitro, three in vivo). The following applies: Ames, mouse lymphoma L5178Y, CHO and human lymphocyte chromosome aberration, SHE cell transformation, rat and hamster bone marrow cytogenetics, mouse dominant lethal.

As for `CC(C)Cn1cnc2c(N)nc3ccccc3c21` [imiquimod, 1-(2-methylpropyl)-1H-imidazo[4,5-c]quinolin-4-amine], the “Mutagenic or clastogenic potential” value is recorded as “no evidence of mutagenic or clastogenic potential”.
